The values below are quoted from earlier work in US10906946B2, “Thrombin inhibitors” (priority 2015, dated 2021).

The target of this series is clot-bound thrombin (Homo sapiens, UniProt P00734). As to conditions: literature value (Berry et al. 1994); read-out: IC50 of inhibition of clot-bound thrombin; cited from earlier work.

For the molecule `CC1CNc2c(cccc2S(=O)(=O)N[C@@H](CCCNC(=N)N)C(=O)N2CC[C@@H](C)C[C@@H]2C(=O)O)C1` (stereo partly shown) [argatroban], the IC50 was 2700 nM.

For orientation: IC50 means the midpoint of a concentration-inhibition curve.
